Each structure is given as a SMILES string. Where two headings read alike, the source gives them in different places.

The IC50 is the midpoint of a concentration-inhibition curve. A low value points to greater potency in that assay.

Series [1] can be described thus: MTT cytotoxicity assay. As for the experimental part:
(§1) Cytotoxicity against human immortalized keratinocytes HaCaT, human alveolar basal epithelial A549 (derived from adenocarcinoma), and murine macrophages RAW 264.7 was tested using MTT [3-(4,5-dimethylthiazol-2-yl)-2,5-diphenyltetrazolium bromide] assay. Cells were cultured in Dulbecco’s modified Eagle’s medium (DMEM) containing 4 mM glutamine for HaCaT, or 2 mM glutamine for A549 and RAW 264.7 cells, supplemented with 10% heat-inactivated fetal bovine serum (FBS) and antibiotics (0.1 mg/mL penicillin and streptomycin). Nonessential amino acids (NEAA) and sodium pyruvate (1 mM) were added for macrophages. Cell lines were grown in 25 and 75 cm^2 flasks at 37 °C in a humidified atmosphere with 5% CO2. Cells were suspended in DMEM, containing glutamine, NEAA, and sodium pyruvate (as described above), supplemented with 2% FBS, plated in 96-well plates at 4 × 10^4 cells/well, and incubated at 37 °C in a 5% CO2 atmosphere. After overnight incubation, the medium was replaced with fresh DMEM supplemented with peptides at different concentrations: 2, 4, 8, 16, 32, 64, and 128 μM. Negative controls were cells without peptides. […] After 4 h of incubation, acidified isopropanol was added to dissolve formazan crystals and measured for OD570 using Tecan microplate reader Infinite M200 (Salzburg, Austria).
(In general: Tetrazolium dyes change colour on reduction, which living cells bring about.)

Series [2] is described as follows: MTT cytotoxicity assay. As for the experimental part: as §1
This is another data set of the same source.

A short description of series [3]: MTT cytotoxicity assay. As for the experimental part:
as §1
The source holds these as a separate data set.

`CC[C@H](C)[C@H](NC(=O)CN)C(=O)NCC(=O)N[C@@H](C)C(=O)N[C@H](C(=O)N[C@@H](CC(C)C)C(=O)N[C@@H](CCCCN)C(=O)N[C@H](C(=O)N[C@@H](CC(C)C)C(=O)N[C@H](C(=O)N[C@H](C(=O)NCC(=O)N[C@@H](CC(C)C)C(=O)N1CCC[C@H]1C(=O)N[C@@H](C)C(=O)N[C@@H](CC(C)C)C(=O)N[C@H](C(=O)N[C@@H](CO)C(=O)N[C@@H](Cc1c[nH]c2ccccc12)C(=O)N[C@H](C(=O)N[C@@H](CCCCN)C(=O)N[C@@H](CCCNC(=N)N)C(=O)N[C@@H](CCCCN)C(=O)N[C@@H](CCCNC(=N)N)C(=O)N[C@@H](CCC(N)=O)C(=O)N[C@@H](CCC(N)=O)C(N)=O)[C@@H](C)CC)[C@@H](C)CC)[C@@H](C)O)[C@@H](C)O)C(C)C)C(C)C` [Melittin, reference compound]: the IC50 is 2000 nM in series [1], under 2000 nM in series [2] and 3000 nM in series [3].

These data come from PMC11345766, “Computational Design of Pore-Forming Peptides with Potent Antimicrobial and Anticancer Activities” (Journal of Medicinal Chemistry, 2024).
